We go through four molecules from PMC7575509, “Phase I study of DFP-11207, a novel oral fluoropyrimidine with reasonable AUC and low Cmax and improved tolerability, in patients with solid tumors” (Investigational New Drugs, 2020).

Molecules are shown by their SMILES.

A short description of the data set: Plasma pharmacokinetics, Food Effect Study (fed vs fasted). To be noted: DFP-11207 300 mg twice daily; for Tmax: human, plasma, oral, 300 mg, Median (Min, Max).

Consider `O=c1[nH]cc(F)c(=O)[nH]1` [5-FU, 5-fluorouracil, reference compound], for which the “Tmax, Median (Min, Max)” value (Steady state dose, Fed) is reported as 5; 2.0 (2.0, 10) h. The Tmax reads like this: (Initial dose, Fasted) 10 h; (Initial dose, Fed) 10 h; (Steady state dose, Fasted) 6 h.

As to `Oc1cc(O)c(Cl)cn1` [CDHP, 5-chloro-2,4-dihydroxypyridine], the Tmax is, setting by setting: (Initial dose, Fasted) 7 h; (Initial dose, Fed) 4 h; (Steady state dose, Fasted) 2 h; (Steady state dose, Fed) 2 h.

`O=C(O)c1cc(O)nc(O)c1` [CTA, citrazinic acid]: the Tmax reads like this: (Initial dose, Fasted) 4 h; (Initial dose, Fed) 10 h; (Steady state dose, Fasted) 2 h; (Steady state dose, Fed) 2 h.

On to `CCOCn1cc(F)c(=O)[nH]c1=O` [EM-FU, 1-ethoxymethyl-5-fluorouracil], for which the Tmax by setting is: (Initial dose, Fasted) 36 h; (Initial dose, Fed) 10 h; (Steady state dose, Fasted) 10 h; (Steady state dose, Fed) 10 h.
